# Assay results as given in paper PMC5805707, “The anti-mycobacterial activity of the cytochrome bcc inhibitor Q203 can be enhanced by small-molecule inhibition of cytochrome bd” (Scientific Reports, 2018).
# Molecular target: T1, cytochrome bcc complex (Mycolicibacterium smegmatis, UniProt A0R052)
# T1 construct: gene MSMEG_4263; native complex in inverted membrane vesicles
# Test: NADH-driven oxygen consumption of inverted membrane vesicles (Clark electrode); effect lost in bcc-KO and […] maximal in bd-KO
# Format: biochemical
structure (smiles),measurement,value
CCc1nc2ccc(Cl)cn2c1C(=O)NCc1ccc(N2CCC(c3ccc(OC(F)(F)F)cc3)CC2)cc1 [Q203],IC50,~20 nM
